From ChEMBL document CHEMBL1155936, “Allosteric FBPase inhibitors gain 10(5) times in potency when simultaneously binding two neighboring AMP sites” (Bioorg Med Chem Lett, 2008)

Biological target: T1, Fructose-1,6-bisphosphatase 1 (Homo sapiens, UniProt P09467)
T1 sequence (P09467 whole entry): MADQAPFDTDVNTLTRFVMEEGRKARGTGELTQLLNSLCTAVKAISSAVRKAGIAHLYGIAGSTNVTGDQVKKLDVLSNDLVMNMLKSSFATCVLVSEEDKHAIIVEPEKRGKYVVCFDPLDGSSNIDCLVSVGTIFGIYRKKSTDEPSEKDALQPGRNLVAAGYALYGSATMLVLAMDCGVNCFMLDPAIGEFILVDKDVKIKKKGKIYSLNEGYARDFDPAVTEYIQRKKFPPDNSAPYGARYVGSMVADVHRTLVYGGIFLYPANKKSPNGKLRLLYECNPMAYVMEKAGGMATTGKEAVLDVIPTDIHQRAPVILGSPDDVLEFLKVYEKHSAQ
Test: Inhibition of human liver fructose-1,6-bisphosphatase

SMILES: O=C(NCCCCCCCNC(=O)NS(=O)(=O)c1cccc(Cl)c1)NS(=O)(=O)c1cccc(Cl)c1
- IC50: 9 nM
